Measured values from patent US4179514A, “Ketoalkanesulfenyl and ketoalkanethiosulfenyl carbamates” (priority 1978, dated 1979).

Tested on: rat
Assay: peroral toxicity to mammals (rat)
Format: in vivo
Details: dose required to achieve mortality rate of 50 percent
Experimental: Certain of these compositions were also evaluated to determine their peroral toxicity to mammals. The animal selected for this experiment was the rat. The test results obtained are expressed in terms of the number of milligrams of compositions per kilogram of weight of the animal required to achieve a mortality rate of 50 percent (LD50).

With “1-(2-Cyanoethylthio)acetaldehyde 0-[N-methyl-N-(2,4-dimethyl-3-oxo-2-pentanethiosulfenyl)carbamoyl]oxime” as the substance, how does the “A.O. RAT LD50” value read?
The value was 20 mg/kg.
